The chains behind the UniProt entries cited, without tags or fusion partners. Residues count along the entry.
UniProt P00742, 41-179 partner limits assumed: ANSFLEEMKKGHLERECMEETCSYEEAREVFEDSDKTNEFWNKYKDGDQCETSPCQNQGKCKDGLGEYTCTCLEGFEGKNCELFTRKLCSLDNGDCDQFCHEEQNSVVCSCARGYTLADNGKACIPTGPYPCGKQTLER
UniProt P00742, 235-488 limits assumed: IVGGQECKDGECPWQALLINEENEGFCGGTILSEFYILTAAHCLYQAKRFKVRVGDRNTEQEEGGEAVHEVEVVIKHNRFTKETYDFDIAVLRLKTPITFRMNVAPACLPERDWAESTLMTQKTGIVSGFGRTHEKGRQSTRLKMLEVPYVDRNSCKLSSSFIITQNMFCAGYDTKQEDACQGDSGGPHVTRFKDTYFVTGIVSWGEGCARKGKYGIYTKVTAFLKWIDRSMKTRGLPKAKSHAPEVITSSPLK

In patent US20130184308A1, “ACTIVATED BLOOD COAGULATION FACTOR X (FXa) INHIBITOR” (DAIICHI SANKYO COMPANY, LIMITED, priority 2008, published 2013):

Legend:
bleeding events [1] = conditions: total knee arthroplasty patients
Description: The implementation of this clinical trial conformed to the ethical research guidelines of the Declaration of Helsinki and secured the maximal human rights, welfare, and safety of the test subjects.

bleeding events [2] = conditions: logistic regression analysis; NVAF patients
Protocol: Moreover, secondary evaluations were performed for efficacy by the comparison of the incidence of thromboembolic events, pharmacodynamic indexes, and biomarkers, and for safety by the comparison of the incidences of adverse events and adverse reactions. […] In the group to which warfarin was administered, 0.5-mg and 1-mg warfarin tablets were used and orally administered once a day for 12 weeks as a rule at a dose that allowed PT-INR to be controlled to between 2.0 and 3.0 inclusive (for 70-year-old or older participants, between 1.6 and 2.6 inclusive).
The clinical trial was carried out by, after obtaining the consent of test subjects, conducting head diagnostic imaging before registration to confirm no bleeding observation, and conducting head diagnostic imaging (CT or MRI), transthoracic echocardiography, lead electrocardiography, blood pressure examination, pulse rate examination, and hematological/biochemical tests.
In the secondary analysis, the hypothesis (comparison) shown below was studied on the incidence of bleeding events using the one-sided Cochran-Armitage test at the 0.025 level of significance. […]

[3] = biological target: activated blood coagulation factor X (FXa) (Homo sapiens, UniProt P00742); conditions: background statement with reference to Patent Literature 1 to 4; cited from earlier work

Row | SMILES | liver functions (serum biochemistry test) compared with placebo group (bleeding events [1]) | odds ratio BW≦60 kg/BW>60 kg of incidence of bleeding events, (A) major and clinically relevant non-major bleeding (bleeding events [2]) | odds ratio BW≦60 kg/BW>60 kg of incidence of bleeding events, (B) major, clinically relevant non-major and minor bleeding (bleeding events [2]) | inhibitory effect on activated blood coagulation factor X (FXa) [3]
1 | CN1CCc2nc(C(=O)N[C@@H]3C[C@@H](C(=O)N(C)C)CC[C@@H]3NC(=O)C(=O)Nc3ccc(Cl)cn3)sc2C1.Cc1ccc(S(=O)(=O)O)cc1 [compound (1a), N^1-(5-chloropyridin-2-yl)-N^2-((1S,2R,4S)-4-[(dimethylamino)carbonyl]-2-{[(5-methyl-4,5,6,7-tetrahydrothiazolo[5,4-c]pyridin-2-yl)carbonyl]amino}cyclohexyl)ethanediamide p-toluenesulfonate monohydrate] | no difference in liver functions | 3.338 | 1.779 | 
2 | CN1CCc2nc(C(=O)N[C@@H]3C[C@@H](C(=O)N(C)C)CC[C@@H]3NC(=O)C(=O)Nc3ccc(Cl)cn3)sc2C1 [formula (I), N^1-(5-chloropyridin-2-yl)-N^2-((1S,2R,4S)-4-[(dimethylamino)carbonyl]-2-{[(5-methyl-4,5,6,7-tetrahydrothiazolo[5,4-c]pyridin-2-yl)carbonyl]amino}cyclohexyl)ethanediamide] |  |  |  | strong inhibitory effect
